Biological target: sarin-, cyclosarin-, VX- and paraoxon-inhibited human AChE (Homo sapiens, UniProt P22303)
Experiment: in vitro reactivation kinetics of four OP-hAChE conjugates
Details: for in vitro reactivation efficiency compared to RS194B: all four OP conjugates, 0.1M Phosphate buffer pH 7.4, 37° C.; for order of potency (printed as in vivo potency): rank order from the initial in vitro analysis

Compound: O=C(/C=N/O)NCCCN1CCCN(CCCNC(=O)/C=N/O)CC1
- in vitro reactivation efficiency compared to RS194B: followed by homopiperazine LG-804
- order of potency (printed as in vivo potency): greater than LG-703

Compound: O=C(/C=N/O)NCCN1CCCN(CCNC(=O)/C=N/O)CC1
- order of potency (printed as in vivo potency): greater than RS194B

Compound: O=C(/C=N/O)NCCC1CCN(CCNC(=O)/C=N/O)CC1
- in vitro reactivation efficiency compared to RS194B: most efficient reactivators
- order of potency (printed as in vivo potency): greater than LG-804

Compound: O=C(/C=N/O)NCCCN1CCN(CCNC(=O)/C=N/O)CC1
- order of potency (printed as in vivo potency): greater than LG-747

Compound: O=C(/C=N/O)NCCN1CCN(CCNC(=O)/C=N/O)CC1
- in vitro reactivation efficiency compared to RS194B: generally similar to RS194B or slower
- order of potency (printed as in vivo potency): LG-747 greater than LG-700

— patent US11820749B2, “Centrally active and orally bioavailable uncharged bisoxime antidotes for organophosphate poisoning and methods for making and using them” (dated 2023)
